For one assay, the system named is CaOv cells. As to the kind of experiment: Antiproliferative activity of IFN derivatives toward CaOv cells. In kind it is cell-based, human. As to conditions: 1000 U/mL; for anti-proliferative activity: CaOv cells (high sensitivity to IFN); for increase in the index of anti-proliferation activity (IAA): CaOv cells, versus non-acylated IFN. On the procedure: (§1) For the synthesis of quasi-living systems on the basis of α-2b-interferon, interferon (IFN) (Biolek, Kharkiv, Ukraine) and succinic and aconite anhydrides (Aldrich-Sigma, USA) were used. The end of the reaction was controlled through changing the molecular weight of the IFN through pulse-gel-electrophoresis in polyacrylamide gel, using non-acylated IFN as a control. […] The modified IFN were cleaned with chromatography on Sephadex G-25 and then preserved at −20° C. Their antiproliferative activity was studied on cells of the CaOv line, which is highly sensitive to interferons in vitro, and on SW-480, a cell line with a low sensitivity to the activity of IFN in vitro. The cells were cultivated in a DMEM medium (Aldrich-Sigma, USA) with the addition of 10% FCS and 50 μg/mL gentamycin (Aldrich-Sigma, USA) with a density of 10^4 cells/cm^2 in 96-well plates (Bayer) at a temperature of 37° C. in an atmosphere of 5% CO2. The cell cultures' sensitivity to IFN was evaluated by the level of slowing the cell growth after treatment with the quasi-living IFN derivatives.
The Index of Anti-proliferative Activity (IAA) of IFN (%) was calculated as a ratio between the number of cells in the experimental well and the number of cells in the control multiplied by 100. The non-specific cytotoxic effect was determined through dyeing the cells with trypan blue incubation after a 24-hour incubation of the cells with IFN derivatives. […] The original titer of non-modified IFN was 2.5×10^3 ME/mL; IFN and its quasi-living derivatives were added to the medium at a dose of 1000 U/mL (0.05 μL/well); the acylated interferons were added in accordance with the calculation of the concentration of the protein. The cells were incubated for 72 hours with interferon. The number of cells was determined using an inverted microscope (Leica, Germany) every twelve hours.

In a further assay the test system is SW-480 cells. As to the kind of experiment: Antiproliferative activity of IFN derivatives toward SW-480 cells. It counts as cell-based, human. On the procedure:
as §1, with “The cells were cultivated in a DMEM medium (Aldrich-Sigma, USA) with the addition of 10% FCS and 50 μg/mL gentamycin (Aldrich-Sigma, USA) with a density of 10^4 cells/cm^2 in 96-well plates (Bayer) at a temperature of 37° C. in an atmosphere of 5% CO2.” left out
The Index of Anti-proliferative Activity (IAA) of IFN (%) was calculated as a ratio between the number of cells in the experimental well and the number of cells in the control multiplied by 100. The non-specific cytotoxic effect was determined through dyeing the cells with trypan blue incubation after a 24-hour incubation of the cells with IFN derivatives. […] The number of cells was determined using an inverted microscope (Leica, Germany) every twelve hours.

For assay [1] the following is noted: treatment of disseminated sclerosis, cited from earlier work.

Take “4-substituted AIF: α-2b-interferon acylated with aconite anhydride, mole ratio 1:4”: in the assay on CaOv cells, the anti-proliferative activity result was “not seen”. On to “3-substituted AIF: α-2b-interferon acylated with aconite anhydride, mole ratio 1:3”, for which the anti-proliferative activity entry with SW-480 cells (SW-480 cells (low sensitivity to IFN), 1000 U/mL) was “largest amount of anti-proliferative activity”. Also, in the assay on SW-480 cells (SW-480 cells, 3-substituted AIF versus SIF), the “activity level higher than that of the SIF” value worked out at 16%. Turning to “1-substituted SIF: α-2b-interferon acylated with succinic anhydride, mole ratio 1:1”, the “increase in the index of anti-proliferation activity (IAA)” value in the assay on CaOv cells is on record as 3.2 times. Consider “1-substituted AIF: α-2b-interferon acylated with aconite anhydride, mole ratio 1:1”, for which, in the assay on CaOv cells, the anti-proliferative activity entry is listed as “largest amount of anti-proliferative activity” and the “increase in the index of anti-proliferation activity (IAA)” value is recorded as 3.6 times.

B1: beta-interferon: biotechnological drug used in the treatment of disseminated sclerosis (protein, UniProt P01574 22-187, looked up)
Interferon beta: MSYNLLGFLQRSSNFQCQKLLWQLNGRLEYCLKDRMNFDIPEEIKQLQQFQKEDAALTIYEMLQNIFAIFRQDSSSTGWNETIVENLLANVYHQINHLKTVLEEKLEKEDFTRGKLMSSLHLKRYYGRILHYLKAKEYSHCAWTIVRVEILRNFYFINRLTGYLRN
B1: the “exceeds the placebo in effectiveness by” value in assay [1] is 8%. Further, in assay [1] (placebo 30%), the effectiveness was 38%.
